Results on one substance are retold here after US9243301B2 (priority 2006, dated 2016).

Amino acid sequences for entries named in this document (tags omitted). A change or cut given only in a name is not applied to a line headed by its entry.
UniProt P35370: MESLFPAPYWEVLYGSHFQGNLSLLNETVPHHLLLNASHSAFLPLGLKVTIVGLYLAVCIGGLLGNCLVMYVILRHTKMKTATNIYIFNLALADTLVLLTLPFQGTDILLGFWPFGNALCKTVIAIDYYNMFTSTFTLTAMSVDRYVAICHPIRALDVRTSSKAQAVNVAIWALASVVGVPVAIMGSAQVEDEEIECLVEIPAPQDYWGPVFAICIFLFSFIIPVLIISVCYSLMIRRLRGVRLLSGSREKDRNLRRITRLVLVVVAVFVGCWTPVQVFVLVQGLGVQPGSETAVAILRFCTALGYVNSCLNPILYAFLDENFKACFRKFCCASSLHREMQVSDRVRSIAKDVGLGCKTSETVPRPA

This assay addresses ORL1 receptor (Rattus norvegicus, UniProt P35370). In kind it is binding.

Regarding Nociceptin [R14K15] 1-17 [“variant” TM], the “increase in binding ability for a nociceptive sensory afferent vis-à-vis natural nociceptin” value is listed as 3- to 10 fold.
